Data on two molecules can be found in US20040210041A1 (published 2004).

Chains of the proteins cited; added tags and fusions are not shown. Residues count along the entry.
UniProt P35968, 20-764 limits assumed: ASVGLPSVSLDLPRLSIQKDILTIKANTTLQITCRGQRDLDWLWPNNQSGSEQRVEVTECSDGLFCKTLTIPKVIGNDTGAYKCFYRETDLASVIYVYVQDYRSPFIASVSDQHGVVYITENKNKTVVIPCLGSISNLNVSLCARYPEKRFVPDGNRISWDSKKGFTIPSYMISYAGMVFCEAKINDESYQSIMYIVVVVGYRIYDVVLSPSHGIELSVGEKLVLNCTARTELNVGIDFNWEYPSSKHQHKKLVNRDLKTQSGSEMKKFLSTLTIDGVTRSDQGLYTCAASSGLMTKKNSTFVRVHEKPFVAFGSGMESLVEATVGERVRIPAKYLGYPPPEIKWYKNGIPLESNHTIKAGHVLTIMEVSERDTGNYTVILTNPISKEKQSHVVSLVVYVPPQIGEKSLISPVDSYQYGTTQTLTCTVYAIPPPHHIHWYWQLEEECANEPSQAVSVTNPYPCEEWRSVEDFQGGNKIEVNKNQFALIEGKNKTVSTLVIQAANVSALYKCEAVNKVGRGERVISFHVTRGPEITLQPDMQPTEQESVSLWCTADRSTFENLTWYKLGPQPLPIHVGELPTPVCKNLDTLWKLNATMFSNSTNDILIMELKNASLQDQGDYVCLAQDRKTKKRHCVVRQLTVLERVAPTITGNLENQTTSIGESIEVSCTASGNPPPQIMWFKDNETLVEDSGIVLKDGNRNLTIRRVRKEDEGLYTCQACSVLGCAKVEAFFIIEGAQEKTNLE

The assay has as its target T1, Soluble KDR receptor (UniProt P35968 20-764, limits assumed).
T1 construct: May be the KDR-Fc fusion
Briefly: SPR (Biacore 3000), soluble KDR immobilised.

B1: P9 (peptide)
peptide: AQEPEGYAYWEVITLYHEEDGDGGK
modifications: Ac-; -NH2
notes: also called P9-D; monomeric P9
For the molecule B1, the Kd came out at 732 nM.

B2: P10 (peptide)
peptide: AQAFPRFGGDDYWIQQYLRYTDGGK
modifications: Ac-; -NH2
notes: also called P10-D; monomeric P10
B2 displayed an equilibrium dissociation constant (Kd) of 1260 nM.
